Some of the results follow. Results with a measured potency or affinity are listed apart. The source made the active and inactive calls. No stated cut-off is given here; in the data, active means activation above about 50% (passing the limit was not always enough); inactive means the rest.

Chains of the proteins cited; added tags and fusions are not shown. Lines headed by an entry give the natural chain unless they say otherwise; changes in a name come on top.
UniProt P41145: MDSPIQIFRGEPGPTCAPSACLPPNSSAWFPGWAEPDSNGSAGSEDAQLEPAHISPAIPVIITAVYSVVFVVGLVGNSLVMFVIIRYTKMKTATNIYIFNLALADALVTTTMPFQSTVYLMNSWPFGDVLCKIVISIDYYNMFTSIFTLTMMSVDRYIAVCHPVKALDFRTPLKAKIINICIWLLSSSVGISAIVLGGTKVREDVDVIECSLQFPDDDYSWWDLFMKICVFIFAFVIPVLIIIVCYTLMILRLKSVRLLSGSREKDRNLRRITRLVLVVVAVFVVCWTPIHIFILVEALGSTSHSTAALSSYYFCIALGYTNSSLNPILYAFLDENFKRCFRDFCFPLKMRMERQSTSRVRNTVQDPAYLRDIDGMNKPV

This assay addresses Kappa-type opioid receptor (Homo sapiens) (UniProt P41145). The assay is described as follows: kappa opioid receptor activators – cell-based, luminescence, uHTS, primary screen (AID 1777). As to conditions: KOR beta-arrestin recruitment, at 10 µM, stronger effect = higher value. Background: Arrestin recruitment assays detect the binding of arrestin to an activated receptor.
`CCOCN(C(=O)Cn1cnc2ccccc21)c1c(C)cccc1CC`: the activation was inactive: -3.4%.
As for `Cc1nc2cc(C(F)(F)F)ccc2n1CCNc1nc(-c2ccc(F)cc2)cs1`, the figure is inactive: -1%; as for `c1ccc(Cn2c(CNc3nc4ccccc4n3CCN3CCOCC3)nc3ccccc32)cc1`, inactive: 3.6%.
In the case of `O=C(Nc1ccncc1[N+](=O)[O-])c1ccc([N+](=O)[O-])cc1[N+](=O)[O-]`, the activation was inactive: -3.4%.
Regarding `COc1ccc(/C=N/NC(=O)Cn2cnc3c2c(=O)n(C)c(=O)n3C)c(OC)c1OC`, the activation was inactive: 2.6%.
Consider `O=C(Cn1cnc2ccccc21)Nc1ccc(F)c(F)c1`, for which the activation was inactive: -0.2%.
For `COC(=O)c1cccc(NC(=O)Cn2cnc3c2c(=O)n(C)c(=O)n3C)c1`, the activation is inactive: -5.3%.
With `O=C(COc1ccccc1)OC1CN2CCC1CC2` (configuration not stated), the activation was inactive: -1.5%.
As to `Cn1c(=O)c2c(ncn2CC(=O)N2CCc3ccccc3C2)n(C)c1=O`, the activation was inactive: -0.5%.
As to `CCC[n+]1cn(/C(C(=S)Nc2cccc(Cl)c2C)=C(/[O-])c2ccc(OC)c(OC)c2)c2ccccc21`, the activation was inactive: -3.2%.
The same measure for `COc1ccc(OCC(=O)N2c3ccc(C)cc3C3CN(C)CCC32)cc1` (configuration not stated): inactive: 0.9%.
Consider `O=C(CCCCCNC(=O)N1CCn2c1nc1ccccc12)NCCc1ccccc1`, for which the activation was inactive: 5%.
Take `Cc1ccc2c(c1)[C@@H]1CN(C)CC[C@@H]1N2S(=O)(=O)c1ccc([N+](=O)[O-])cc1`: the activation was inactive: 0.1%.
Regarding `NNC(=O)Cn1c(-c2ccccn2)nc2ccccc21`, the activation is inactive: -3.9%.
As for `COc1cc(NC(=O)[C@H](C)NC(=O)N2CCn3c2nc2ccccc23)cc(OC)c1`, the activation was inactive: 2%.
Turning to `Cc1ccc(NC(=O)Cn2c(=S)[nH]c3ccccc32)cc1`, the activation is inactive: 3.1%.
With `Cn1c(=O)c2c(ncn2CC(=O)NCc2cccnc2)n(C)c1=O`, the activation was inactive: -1.3%.
`Cn1c(=O)[nH]c(=O)c2c1ncn2CCN1CCCCC1`: the activation was inactive: -2.9%.
With `CCOC(=O)Nc1cccc([As](=O)(O)O)c1`, the activation was inactive: 2.7%.
Take `Cn1c(=O)n(Cc2ccccc2)c(=O)c2c1nc1n2CCN1Cc1ccco1`: the activation was inactive: -2.5%.
Regarding `Cn1c(=O)c2c(ncn2CC(=O)N/N=C/c2ccc(Br)s2)n(C)c1=O`, the activation is inactive: -1.3%.
As for `C/C(=N\NC(=O)Cn1c(C)nc2ccccc21)c1cccs1`, the figure is inactive: 6.3%.
For the compound `O=C(Cn1c(CCCO)nc2ccccc21)Nc1ccccc1-c1ccccc1`, the activation was inactive: 6.5%.
Consider `CCCNC(=O)Cn1c(=O)n(C)c2ccccc21`, for which the activation is inactive: 3.3%.
As for `CC1CN(Cc2nc3c(c(=O)n(C)c(=O)n3C)n2CCN2CCOCC2)CC(C)O1` (configuration not stated), the figure is inactive: -2.3%; as for `CCNC(=S)N1CCn2c(nc3ccccc32)C1`, inactive: -1.7%; as for `Cc1cc(SC(NC=O)C(Cl)(Cl)Cl)ncn1` (configuration not stated), inactive: 2.8%.
Regarding `O=P(Nc1ccccn1)(c1cccc2ccccc12)c1cccc2ccccc12`, the activation is inactive: -4.7%.
On to `CCc1nc2ccccc2n1CC(=O)N1CCN(S(=O)(=O)c2cccc(C(F)(F)F)c2)CC1`, for which the activation is inactive: 0.3%.
With `COc1ccccc1C(=O)OCCNC(=O)Cn1cnc2c1c(=O)n(C)c(=O)n2C`, the activation is inactive: -0.1%.
As for `O=[N+]([O-])c1ccc(Nc2ccc(Oc3ccc([N+](=O)[O-])cc3[N+](=O)[O-])cc2)c([N+](=O)[O-])c1`, the figure is inactive: 0.8%; as for `O=C(Cn1c(CC(=O)N2CCOCC2)nc2ccccc21)Nc1ccc2c(c1)OC(F)(F)O2`, inactive: -5.2%.
For the compound `CCS(=O)(=O)c1nc2ccccc2n1CC(=O)N1CCOCC1`, the activation is inactive: -4.8%.
Turning to `CCC(C)c1ccc2oc(-c3ccc(NC(=O)Cn4cnc5c(=O)n(C)c(=O)n(C)c54)cc3)nc2c1` (configuration not stated), the activation is inactive: -3.5%.
As for `COCCN1CCn2c(nc3cc(NC(=O)c4ccc(OC)cc4)ccc32)C1`, the activation was inactive: -3.2%.
Consider `CCC(=O)Nc1nnc(/C=C/c2ccccc2)s1`, for which the activation is inactive: 2.4%.
Consider `COc1ccc(S(=O)(=O)N2CCn3c2nc2ccccc23)cc1`, for which the activation is inactive: 0.3%.
With `Cc1ccc2c(c1)C1CN(C)CCC1N2C(=O)COc1ccccc1F` (configuration not stated), the activation was inactive: 1%.
`Nc1ncnc2c1ncn2CCNCCc1ccccc1`: the activation is inactive: -2.5%.
As for `O=C(Cn1c(C(F)(F)F)nc2ccccc21)NCCCN1CCOCC1`, the activation was inactive: -5%.
`CCCCC(=O)Nc1nnc(/C=C/c2ccc(OC)cc2)s1`: the activation is inactive: -1.7%.
Take `CC(C)C[C@H](NC(=O)N1CCn2c1nc1ccccc12)C(=O)NCCc1ccccc1`: the activation is inactive: -2.1%.
The same measure for `Cc1cc(C)cc(N(CC(=O)N2CCn3c2nc2ccccc23)S(=O)(=O)c2c(C)noc2C)c1`: inactive: 0.9%.
`O=C(C1CCN(S(=O)(=O)c2cccc3cccnc23)CC1)N1CCn2c1nc1ccccc12`: the activation was inactive: -33.4%.
Regarding `Cc1ccc(N(CC(=O)N2CCn3c2nc2ccccc23)S(=O)(=O)c2c(C)n[nH]c2C)cc1`, the activation was inactive: -3.3%.
For the compound `CC1c2nc3ccccc3n2C(CC(=O)NCc2ccccn2)C(=O)N1Cc1ccccc1` (configuration not stated), the activation is inactive: -2.8%.
The same measure for `CC(=O)Nc1ccc(C(=O)CSc2nc3ccccc3n2CC(=O)N2CCCC2)cc1`: inactive: 1.4%; for `Cc1ccc2c(c1)C1CN(C)CCC1N2C(=O)c1cccs1` (configuration not stated): inactive: 0.9%; for `Nc1ncnc2c1ncn2CCN1CCOCC1`: inactive: 10.2%.
Consider `Cc1ccc2c(c1)C1CN(C)CCC1N2C(=O)COc1ccc(N(C)C(=O)C(C)(C)C)cc1` (configuration not stated), for which the activation is inactive: 0.8%.
Take `CCN(CC)CCNC(=S)N1CCn2c(nc3ccccc32)C1`: the activation is inactive: -1.4%.
In the case of `CC(C)[C@H](NC(=O)N1CCn2c1nc1ccccc12)C(=O)NC1CCCCC1`, the activation was inactive: 0.9%.
The same measure for `COc1ccc(/C=N/c2nc3ccccc3n2CCN2CCCCC2)cc1OC`: inactive: -2.6%; for `Cc1cc(SC(NC(=O)c2ccccc2)C(Cl)(Cl)Cl)nc(C(C)C)n1` (configuration not stated): inactive: -2.7%.
Regarding `CC(=O)Nc1ccc(NC(=O)Cn2c(CC(=O)N3CCCC3)nc3ccccc32)cc1`, the activation was inactive: -6%.
Consider `CC(C)[C@H](NC(=O)N1CCn2c1nc1ccccc12)C(=O)N1CCCCC1`, for which the activation is inactive: 4.7%.
As for `Cc1ccc(-c2csc(N3CCC[C@@H]3C(=O)NCCn3c(C(F)(F)F)nc4ccccc43)n2)cc1`, the figure is inactive: 3.3%.

Values taken from PubChem BioAssay AID1777 (Sanford-Burnham Center for Chemical Genomics, 2009).
